# Laboratory results taken from paper PMC10141526 (The Journal of Biological Chemistry, 2023).
# By UniProt entry, the sequences of proteins in these tests, tags left out. Residues count along the entry.
# UniProt P25942, 21-193 limits assumed: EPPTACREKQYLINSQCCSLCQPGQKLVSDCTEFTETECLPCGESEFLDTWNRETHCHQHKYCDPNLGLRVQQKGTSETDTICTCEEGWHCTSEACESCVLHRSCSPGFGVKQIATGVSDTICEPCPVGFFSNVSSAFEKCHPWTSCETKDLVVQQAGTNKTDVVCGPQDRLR
# How the values were obtained:
# CD11b/CD18+CD40 = CD11b/CD18+CD40 (Homo sapiens, UniProt P25942); experiment: KinExA solution phase assay, KGYY15 with CD11b/CD18+CD40; assay type: binding; conditions: CD11b/CD18+CD40 vs CD40 alone
# CD11a/CD18+CD40 = CD11a/CD18+CD40 (Homo sapiens, UniProt P25942); experiment: KinExA solution phase assay, KGYY15 with CD11a/CD18+CD40; assay type: binding; conditions: CD11a/CD18+CD40 vs CD40 alone
compound,measurement,setting,value
CSCC[C@H](NC(=O)[C@@H](NC(=O)[C@H](Cc1ccc(O)cc1)NC(=O)[C@H](Cc1ccc(O)cc1)NC(=O)CNC(=O)[C@H](CCCCN)NC(=O)[C@H](CCCCN)NC(=O)[C@H](C)NC(=O)[C@H](Cc1c[nH]c2ccccc12)NC(=O)[C@H](CCC(N)=O)NC(=O)[C@H](CC(C)C)NC(=O)[C@@H](N)C(C)C)[C@@H](C)O)C(=O)N[C@@H](CCCCN)C(=O)N[C@@H](CO)C(=O)N[C@@H](CC(N)=O)C(=O)O [KGYY15],Kd relative to CD40 alone (times lower),CD11b/CD18+CD40,15 times
same,Kd relative to CD40 alone (times higher),CD11a/CD18+CD40,1.5 times
